Values of other authors as cited in patent US7276608B2, “Tetrahydroquinoline derivatives as cannabinoid receptor modulators” (Bristol-Myers Squibb Company, priority 2003, dated 2007).

Settings: chronic administration for two weeks

Compound: Cc1c(C(=O)NN2CCCCC2)nn(-c2ccc(Cl)cc2Cl)c1-c1ccc(I)cc1 [AM-251]
- adipose tissue mass: decreased adipose tissue mass
